Test results taken from patent US8883782B2, “Spiro-tetracyclic ring compounds as beta-secretase modulators and methods of use” (Amgen Inc., priority 2010, dated 2014).

Protein sequences, listed by entry. Tags and fused reporters are not part of them. Residues count along the entry.
UniProt P56817, 46-501, species assumed: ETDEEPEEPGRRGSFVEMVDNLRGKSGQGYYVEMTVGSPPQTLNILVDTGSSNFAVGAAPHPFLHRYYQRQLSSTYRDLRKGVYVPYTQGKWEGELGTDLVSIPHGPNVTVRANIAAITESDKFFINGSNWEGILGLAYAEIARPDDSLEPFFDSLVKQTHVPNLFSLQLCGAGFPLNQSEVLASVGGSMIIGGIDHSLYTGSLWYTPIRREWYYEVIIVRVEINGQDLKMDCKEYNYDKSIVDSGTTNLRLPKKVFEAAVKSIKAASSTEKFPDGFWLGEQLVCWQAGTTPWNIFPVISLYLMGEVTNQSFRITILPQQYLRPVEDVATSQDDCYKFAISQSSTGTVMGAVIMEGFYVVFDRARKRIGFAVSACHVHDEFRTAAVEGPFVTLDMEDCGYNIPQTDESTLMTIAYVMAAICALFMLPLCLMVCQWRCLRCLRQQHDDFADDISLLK

Target: Beta Secretase enzyme (BACE) (Homo sapiens, UniProt P56817)
Test: In vitro enzymatic BACE FRET (fluorescence resonance energy transfer) assay
Assay type: biochemical
Conditions: average IC50, enzyme assay; read-out: BACE 1 FRET assay

IC50: 17.5 nM
Substance: 2′-amino-9-fluoro-7-((3-methyl-3-oxetanyl)ethynyl)spiro[chromeno[2,3-c]pyridine-5,4′-[1,3]oxazol]-3-yl)benzonitrile [Example 694]
